This note sets out measurements from publication PMC10079235 (PLOS Neglected Tropical Diseases, 2023).

The test system of this data set is HCT-8/NC(PTX) cells. The settings on record: human, 41 h. The protocol: Host cell drug tolerance to specified inhibitors was evaluated by 3-(4,5-dimethylthiazol-2-yl)-5-(3-carboxymethoxyphenyl)-2-(4-sulfophenyl)-2H-tetrazolium (MTS) assay. WT and transgenic host cells were seeded in 96-well plates (10,000 cells/well) and cultured for 24 h, followed by the addition of specified compounds at serially diluted concentrations and continued culture for 41 h. After 3 washes with serum-free medium, MTS solution (Saint-Bio, Shanghai, China) was added into the plates (20 μL/well) and incubated at 37°C for 2 h. Optical density at 490 nm (OD490) was measured using a Synergy LX multi-mode reader (BioTek, Winooski, VT). Drug tolerance was indicated by half-maximal cytotoxic concentrations (TC50 values) calculated by nonlinear regression using 4PL model. Selectivity index (SI) for each compound was determined by the ratio between TC50 and EC50 values (SI = TC50/EC50).
Surviving cells were allowed to recover in drug-free medium for 3–5 d to near confluence (round 1). The selection/recovery cycle were repeated once (round 2). […] The resulting cell lines after PTX or NTZ selection were designated as WT(PTX), NC(PTX) and MDR1(PTX), or WT(NTZ), NC(NTZ) and MDR1(NTZ), respectively (Tables 1 and S2).

With `CC(=O)O[C@H]1C(=O)[C@@]2(C)[C@H]([C@H](OC(=O)c3ccccc3)[C@]3(O)C[C@H](OC(=O)[C@H](O)[C@@H](NC(=O)c4ccccc4)c4ccccc4)C(C)=C1C3(C)C)[C@]1(OC(C)=O)CO[C@@H]1C[C@@H]2O` [Paclitaxel], the TC50 was determined as 15.20 µM.
